Test results taken from paper PMC3203607 (Nucleic Acids Research, 2011).

Chains of the proteins cited; added tags and fusions are not shown. Residues count along the entry.
UniProt P06730, 28-217: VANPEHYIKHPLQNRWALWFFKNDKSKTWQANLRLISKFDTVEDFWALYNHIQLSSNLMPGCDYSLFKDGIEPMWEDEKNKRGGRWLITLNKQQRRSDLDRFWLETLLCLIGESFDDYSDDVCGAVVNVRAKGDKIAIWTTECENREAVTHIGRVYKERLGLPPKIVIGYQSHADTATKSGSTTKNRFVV

Target: Human eIF4E (28–217) (Homo sapiens, UniProt P06730)
Assay: fluorescence titration
Type: binding

- Kd: 335 ± 36 nM
SMILES: C[n+]1cn([C@@H]2O[C@H](COP(=O)(O)OP(=O)(O)OP(=O)(O)OC[C@H]3O[C@@H](n4cnc5c(=O)[nH]c(N)nc54)[C@H](O)[C@@H]3O)[C@@H](O)[C@H]2O)c2nc(N)[nH]c(=O)c21 [m^7GpppG]
